{"sequences": {"note": "The chains behind the UniProt entries cited, without tags or fusion partners.", "UniProt Q8NER1, whole entry": "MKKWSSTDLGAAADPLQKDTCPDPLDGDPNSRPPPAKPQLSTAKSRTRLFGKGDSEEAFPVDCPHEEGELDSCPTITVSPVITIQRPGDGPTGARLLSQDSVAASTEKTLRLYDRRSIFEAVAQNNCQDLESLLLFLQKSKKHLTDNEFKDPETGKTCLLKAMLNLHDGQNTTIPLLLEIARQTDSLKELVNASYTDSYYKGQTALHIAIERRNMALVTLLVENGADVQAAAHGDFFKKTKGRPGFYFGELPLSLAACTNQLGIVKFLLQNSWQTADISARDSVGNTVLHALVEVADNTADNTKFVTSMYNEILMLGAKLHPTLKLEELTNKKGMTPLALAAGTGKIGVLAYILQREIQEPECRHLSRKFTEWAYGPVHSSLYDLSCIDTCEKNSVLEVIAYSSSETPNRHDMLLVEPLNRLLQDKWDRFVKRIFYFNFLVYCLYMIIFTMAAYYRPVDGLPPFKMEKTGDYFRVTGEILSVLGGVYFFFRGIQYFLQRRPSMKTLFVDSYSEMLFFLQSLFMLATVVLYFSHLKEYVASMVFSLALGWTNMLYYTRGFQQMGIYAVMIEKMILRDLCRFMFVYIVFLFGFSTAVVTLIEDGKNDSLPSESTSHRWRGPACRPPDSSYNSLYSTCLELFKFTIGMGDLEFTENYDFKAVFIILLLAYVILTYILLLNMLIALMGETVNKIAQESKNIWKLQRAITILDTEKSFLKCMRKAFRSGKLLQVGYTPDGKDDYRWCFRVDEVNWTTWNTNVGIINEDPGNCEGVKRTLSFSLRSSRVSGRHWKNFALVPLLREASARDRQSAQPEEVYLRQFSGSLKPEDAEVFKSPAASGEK", "UniProt O75762, whole entry": "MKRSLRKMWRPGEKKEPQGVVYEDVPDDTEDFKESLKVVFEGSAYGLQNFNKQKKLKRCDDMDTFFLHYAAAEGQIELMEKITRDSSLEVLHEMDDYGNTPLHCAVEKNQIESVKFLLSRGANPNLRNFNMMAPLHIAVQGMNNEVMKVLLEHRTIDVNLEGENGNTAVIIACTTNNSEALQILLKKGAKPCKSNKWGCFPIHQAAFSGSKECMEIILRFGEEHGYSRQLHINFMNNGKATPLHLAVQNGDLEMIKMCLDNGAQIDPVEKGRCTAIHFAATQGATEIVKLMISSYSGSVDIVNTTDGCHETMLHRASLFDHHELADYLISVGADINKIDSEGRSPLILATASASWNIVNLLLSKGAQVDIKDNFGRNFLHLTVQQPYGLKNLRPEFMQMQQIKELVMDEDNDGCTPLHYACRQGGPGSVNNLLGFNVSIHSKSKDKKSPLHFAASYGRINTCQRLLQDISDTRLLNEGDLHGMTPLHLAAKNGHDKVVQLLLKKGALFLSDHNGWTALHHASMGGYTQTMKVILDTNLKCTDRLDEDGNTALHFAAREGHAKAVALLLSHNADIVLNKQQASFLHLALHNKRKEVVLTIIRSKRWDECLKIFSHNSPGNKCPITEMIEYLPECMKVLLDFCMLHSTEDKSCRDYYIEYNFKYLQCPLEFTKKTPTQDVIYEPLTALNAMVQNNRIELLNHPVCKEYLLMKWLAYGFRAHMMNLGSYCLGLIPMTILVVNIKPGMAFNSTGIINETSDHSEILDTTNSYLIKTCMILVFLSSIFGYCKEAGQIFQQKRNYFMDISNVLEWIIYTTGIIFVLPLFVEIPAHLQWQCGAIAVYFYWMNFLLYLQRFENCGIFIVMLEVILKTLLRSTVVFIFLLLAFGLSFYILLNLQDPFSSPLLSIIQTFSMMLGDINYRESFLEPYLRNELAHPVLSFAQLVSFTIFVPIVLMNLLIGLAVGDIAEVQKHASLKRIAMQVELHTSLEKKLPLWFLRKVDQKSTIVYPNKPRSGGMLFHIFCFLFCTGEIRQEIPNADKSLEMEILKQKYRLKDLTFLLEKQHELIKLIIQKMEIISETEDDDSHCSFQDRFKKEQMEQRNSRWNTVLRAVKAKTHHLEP"}, "source": "patent US20170000702A1", "about": "“PERSONAL CARE COMPOSITIONS COMPRISING A SENSATE” (The Gillette Park, priority 2015, published 2017)", "format_in_all_cases": "cell-based", "key": {"[1]": {"target": "T1, human TRPV1 (Homo sapiens, UniProt Q8NER1)", "T1 construct": "expressed in transfected cells; host or cells: HEK-293", "experiment": "Pre-Incubation Test Method, TRPV1 (FLIPR intracellular calcium, capsaicin activator)", "experimental": "(§1) The Pre-Incubation Test and Direct Addition Test Methods, as defined herein, can be conducted on either TRPV1 or TRPA1 receptors.\n(§2) Pre-Incubation Test Method: First, the intracellular calcium ion (Ca^+2) levels in TRPV1 and TRPA1 receptors is measured. […] Cells are detached with addition of 10 ml of PBS (phosphate buffered saline) by hand shaking gently. Cells are transferred to a 50 ml tube and centrifuged at 850 rpm for 3 minutes to remove PBS. After centrifugation, a pellet of cells is formed in the bottom of the tube separating them from the supernatant solution. […] Fluo-4 is a fluorescent dye used for quantifying cellular Ca^2+ concentrations in the 100 nM to 1 microM range. […]\n(§3) The pellet cells are re-suspended in 10 ml assay buffer and 90 μl aliquots (˜50,000 cells) per well delivered to a 96-well assay plate containing 10 μl of test compounds (1 mM in assay buffer, final concentration 100 μM) or buffer control and incubated at room temperature for 30 minutes. […] Then 20 μl of the activators [1.8 μM Capsaicin (final concentration 300 nM) for TRPV1 or 300 μM AITC (final concentration 50 μM) for TRPA1 is added by FLIPR automatically and fluorescence recorded immediately."}, "[2]": {"target": "T2, human TRPA1 (Homo sapiens, UniProt O75762)", "T2 construct": "expressed in transfected cells; host or cells: HEK-293", "experiment": "Pre-Incubation Test Method, TRPA1 (FLIPR intracellular calcium, AITC activator)", "experimental": "as §1, §2, §3"}, "[3]": {"target": "T1, human TRPV1", "experiment": "Direct Addition Test Method, TRPV1 (FLIPR intracellular calcium)", "experimental": "as §1, §2\nas §3, with “immediately. […]” for “immediately.”"}, "[4]": {"target": "T2, human TRPA1", "experiment": "Direct Addition Test Method, TRPA1 (FLIPR intracellular calcium)", "experimental": "as §1, §2\nas §3, with “immediately. […]” for “immediately.”"}}, "data": [{"smiles": "CC(=O)CCC=C(C)C", "note": "[6-Methyl-5-hepten-2-one, 6-methyl-5-hepten-2-one]", "values": [{"measurement": "Pre-incubation % Regulation", "setting": "[1]", "value": "−3.18", "unit": "%"}, {"measurement": "Pre-incubation % Regulation", "setting": "[2]", "value": "−1.44", "unit": "%"}, {"measurement": "Direct Addition % Regulation", "setting": "[3]", "value": "−0.3", "unit": "%"}, {"measurement": "Direct Addition % Regulation", "setting": "[4]", "value": 0.49, "unit": "%"}]}]}
